PMC5569891 (Chembiochem : a European journal of chemical biology, 2017)

Target: EhCrtM (Enterococcus hirae, UniProt I6T9U8)

## CC(C)=CCC/C(C)=C/CC/C(C)=C/COP(=O)(O)OP(=O)(O)O [compound 1, farnesyl diphosphate]
  product identification (dehydrosqualene): The protein produced dehydrosqualene from FPP
